Experimental data taken from paper PMC5665883 (2017).

Experiments:
thrombin = thrombin (Homo sapiens, UniProt P00734); assay: Thrombin activity assay (amidolytic activity, S-2238); type: biochemical
human α-thrombin = human α-thrombin (Homo sapiens, UniProt P00734); assay: Chromogenic substrate assay, Ki (Dixon); type: biochemical

CC1CNc2c(cccc2S(=O)(=O)N[C@@H](CCCNC(=N)N)C(=O)N2CC[C@@H](C)C[C@@H]2C(=O)O)C1 (some centres unmarked) [Argatroban]
IC50 (thrombin): 120 nM
Ki (human α-thrombin): 25 ± 1.1 nM
